Legend:
[1] = test system: FGF2(WT), FGF2(−), FGF2(Hi), FGF2(Lo) mice; test: In vivo model for acute Doxorubicin effects: mortality and body weight; parameters: species or system mouse; details: female FGF2(−) mice, 5-6 days post Dox
Excerpt: In vivo model for acute Doxorubicin effects.
In vivo model for acute cardiotoxic effects. […] Hearts were then collected for biochemical analyses.

[2] = test system: FGF2(WT), FGF2(−), FGF2(Hi), FGF2(Lo) mice; details: mouse, in vivo

## Doxorubicin
[1]
  mortality: 10%
[2]
  HR: 645 ± 73 beats/min
